Screens (PubChem BioAssay)
Only some compounds are listed: those with a hit (about 3.7% of all), similar ones and a draw of the others.
A549 tox: A549 cytotoxicity, counter-screen for Nrf2 inhibitors. AID 504648. 390,000 tested, 0.16% active. Potency, µM (top dose mostly 46 µM), inactives show at the top dose activity change, negative = cytotoxicity, actives largely listed as inhibitors. A549 ARE-Fluc cells, CellTiter-Fluor viability, 18-24 h; further: potency means the concentration at half of the fitted maximal effect; on the % scale 0 is the no-effect control and ±100 the full control effect
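A549 ARE-Fluc cells in 5% FBS OPTI-MEM, 5000 cells/well, rested 2 h then exposed to compounds in concentration-response for 18-24 h at 37 °C. Viability by CellTiter-Fluor fluorescence (Ex 405/Em 525) after 30 min; luciferase luminescence (BugLite, 15 min, RT) read afterwards.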
Nrf2 ARE act: activates Nrf2 signaling; AREc32 ARE-luciferase reporter (MCF7-derived line), luminescence, 24 h; Potency, µM (series often up to 46.1 µM), inactives show at the highest dose activation, most hits filed as activators; AID 624171; 410,000 tested, 0.31% active; further: potency means the concentration at half of the fitted maximal effect; % of control where 0% means no effect; nearly all actives have a fitted effect of over 65% in size
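Cells of the AREc32 ARE-luciferase line are plated in OPTI-MEM containing 5% FBS and left overnight at 37 deg C. Compounds are pinned in, incubation continues 24 hr, and firefly luciferase signal is then measured.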
ClpP mod: qHTS Assay for Activators of ClpP; ATP-dependent Clp protease proteolytic subunit (Bacillus subtilis (strain 168)), P80244; purified B. subtilis ClpP, FRET peptide cleavage, 20 min; Potency, µM (highest dose often 57.5 µM), for inactives: top-dose activity change, negative = active; 340,000 tested, 1.9% active; AID 651965, 2013; active means well fitted falling curve with a large enough effect; inconclusive means small, poorly fitted or top-dose-only effect; inactive means no such curve, though single readings can be large or run the other way; further: potency means the concentration at half of the fitted maximal effect; the source files actives as falling curves though it sought activators and does not explain the sign; nearly all actives have a fitted effect of over 65% in size
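ClpP 10 microg/mL final, pH 8 Tris/KCl buffer with BSA, glycerol, Tween-20; compound pinned in; FRET-FV substrate; RT 20 min; Ex320/Em430; ΔFRET vs ADEP 5.8 microM, DMSO, no enzyme.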
miR-21 reporter: raises the signal of a miR-21 reporter | Potency, µM (doses to about 38.3 µM), for inactives: top-dose reporter change, positive = more light | HeLa miR-21 FLuc reporter, luciferase, 48 h | AID 2288 | 340,000 tested, under 10 active; active = well fitted rising curve with a large enough effect; inconclusive = small, poorly fitted or top-dose-only effect; inactive = no such curve, though single readings can be large or run the other way;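 also: % of control where 0% means no effect; miR-21 action dims this reporter so a rising signal means less miR-21 action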
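HeLa cells stably expressing CMV-driven firefly luciferase with a downstream miR-21 binding sequence, endogenously expressing miR-21, were treated with titrations (up to about 40uM final) for 48 hours at 37 degree Celsius. Luciferase luminescence was read after lysis.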
TCR act: T cell receptor activation. primary human leukocytes, anti-CD3, IL-2 HTRF, 48 h. Potency, µM (top dose mostly 9.22 µM), inactives show at the highest dose activation of IL-2 secretion, actives largely listed as activators. 330,000 tested, under 10 active. AID 504894; further: % of control where 0% means no effect
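IL-2 produced over 48 hr by a-CD3 bead-stimulated primary human leukocytes exposed to compounds was detected with a homogeneous time-resolved FRET immunoassay, 665nm acceptor signal after 320nm excitation.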
Nrf2 block: inhibitors of Nrf2 signaling; A549 ARE-Fluc reporter, luciferase luminescence, 18-24 h; AID 504444; Potency, µM (top dose mostly 46 µM), for inactives: at the top dose activity change, negative = inhibition, usual class: inhibitors; 360,000 tested, 2.1% active; further: potency means the concentration at half of the fitted maximal effect; on the % scale 0 is the no-effect control and ±100 the full control effect; nearly all actives have a fitted effect of over 60% in size
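Quantitative HTS in A549 cells stably bearing an antioxidant response element-firefly luciferase construct. Inhibition of Nrf2-driven transcription was scored by luminescence after 18-24 h of compound exposure at 37 °C.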
An asterisk follows results filed as active; ? = inconclusive; · = not tested or not shown; [ ] = remark or other dose. Unless noted, the call rests on the fitted dose curve; in most records, active means well fitted curve in the direction sought with a large enough effect; inconclusive means small, poorly fitted or top-dose-only effect, or another doubt; inactive means no such curve, though single readings can be large; an effect the other way counts as inactive or inconclusive.

Sequences of proteins named here, by UniProt entry; tags and fusion partners are left off.
ATP-dependent Clp protease proteolytic subunit (Bacillus subtilis (strain 168)), P80244, UniProt P80244, whole entry, looked up: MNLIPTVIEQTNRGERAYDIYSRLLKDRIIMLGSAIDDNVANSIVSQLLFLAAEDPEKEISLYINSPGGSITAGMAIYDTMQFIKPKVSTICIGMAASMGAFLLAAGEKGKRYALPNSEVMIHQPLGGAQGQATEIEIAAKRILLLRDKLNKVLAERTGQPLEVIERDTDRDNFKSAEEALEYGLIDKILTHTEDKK

compound,A549 tox,Nrf2 ARE act,ClpP mod,miR-21 reporter,TCR act,Nrf2 block
COc1ccc(NS(=O)(=O)c2cc(NC(=O)CCSc3ccccc3)ccc2OC)cc1,-7.2%,1.8%,-1.4%,-11.3%,3.5%[46.1 µM],?
COc1ccc(NC(=O)CCSc2ccc(C)cc2)cc1S(=O)(=O)Nc1ccccc1Cl,2.0%,0.3%,-2.2%,11.8%,-0.8%[46.1 µM],23.1µM*
COc1ccc(NC(=O)C2CCC2)cc1S(=O)(=O)Nc1cc(C)ccc1Br,?,0.4%,1.7%,·,2.3%,20.6µM*
O=C(COc1ccccc1)Nc1nnc(SCc2cc(=O)n3cc(Cl)ccc3n2)s1,8.0%,0.0%,-0.3%,-0.9%,·,·
Cc1ccc2oc(C(=O)Nc3cccc(Cl)c3)cc(=O)c2c1,-0.7%,0.5%,-13.3%,-0.4%,·,-6.9%
CCOCCCNC(=O)/C(C#N)=C/c1ccc([N+](=O)[O-])o1,?,?,·,9.5%,6.5%,25.9µM*
COc1ccccc1CNS(=O)(=O)c1ccc(-c2cc(C(F)(F)F)on2)s1,-1.7%,0.3%,0.0%,8.9%,·,?
COc1ccc(OC)c(CNS(=O)(=O)c2ccc(-c3cc(C(F)(F)F)on3)s2)c1,-4.8%,0.6%,0.2%,17.0%,·,16.4µM*

The final 4 records of the section above come first, to join the parts.
compound,A549 tox,Nrf2 ARE act,ClpP mod,miR-21 reporter,TCR act,Nrf2 block
Cc1ccc2oc(C(=O)Nc3cccc(Cl)c3)cc(=O)c2c1,-0.7%,0.5%,-13.3%,-0.4%,·,-6.9%
CCOCCCNC(=O)/C(C#N)=C/c1ccc([N+](=O)[O-])o1,?,?,·,9.5%,6.5%,25.9µM*
COc1ccccc1CNS(=O)(=O)c1ccc(-c2cc(C(F)(F)F)on2)s1,-1.7%,0.3%,0.0%,8.9%,·,?
COc1ccc(OC)c(CNS(=O)(=O)c2ccc(-c3cc(C(F)(F)F)on3)s2)c1,-4.8%,0.6%,0.2%,17.0%,·,16.4µM*
CSc1nsc(SC)c1NC(=O)Nc1ccccn1,-13.3%,10µM*,-0.8%,-16.1%,-0.2%,·
CSc1nsc(SC)c1NC(=O)OCCc1ccccn1,-13.0%,0.0%,0.1%,-5.2%,-1.7%,0.3%
O=S(=O)(c1cccc(O)c1)N1CCN(S(=O)(=O)c2c(F)cccc2F)CC1,-0.8%,·,·,·,·,3.4%
CCOc1ccc(S(=O)(=O)Nc2cccc(OC)c2)c2cccnc12,-17.1%,6.6%,-0.5%,5.1%,·,14.6µM*
CCCCNS(=O)(=O)c1ccc(OC)c2ncccc12,-9.5%,-0.3%,28.2µM*,-6.9%,-4.0%,-10.9%
CCOc1ccc(NS(=O)(=O)c2ccc(OCC)c3ncccc23)cc1,?,1.6%,-0.9%,22.4%,0.4%,?
CCOc1ccc(S(=O)(=O)NCc2ccc(C)cc2)c2cccnc12,0.0%,0.0%,31.6µM*,-4.8%,4.7%,7.0%
CCOc1ccc(S(=O)(=O)Nc2ccc(OC)c(Cl)c2)c2cccnc12,-5.9%,13.5%,-2.0%,9.0%,·,?

Next part.
compound,A549 tox,Nrf2 ARE act,ClpP mod,miR-21 reporter,TCR act,Nrf2 block
COc1ccc(S(=O)(=O)Nc2cccc(C)c2C)c2cccnc12,-0.5%,4.9%,·,-0.3%,-10.6%,-24.5%
COc1ccc(S(=O)(=O)n2ccnc2)c2cccnc12,-1.1%,0.0%,12.6µM*,1.2%,-2.9%,-8.5%
Cc1ccc(NS(=O)(=O)c2cc3c(cc2C)NC(=O)CO3)cc1C,1.0%,·,·,·,·,-16.4%
Cc1ccc(C(=O)n2nc(-c3ccco3)nc2N)cc1,0.1%,-2.7%,?,-5.8%,-3.9%,?
Nc1nc(-c2ccco2)nn1C(=O)c1ccccc1Cl,-1.2%,-0.3%,·,2.6%,2.6%,1.84µM*
Cc1ccccc1Cn1c2ccccc2c2cnn(CC(=O)NCc3cccc(Cl)c3)c(=O)c21,0.3%,-0.6%,22.4µM*,-0.1%,·,-23.8%
COc1ccccc1CNC(=O)Cn1ncc2c3ccccc3n(Cc3ccccc3C)c2c1=O,4.6%,0.3%,?,-2.2%,·,4.3%
CN(CC(=O)NCc1cccnc1)S(=O)(=O)c1ccc(F)cc1,7.5%,0.2%,·,5.5%,0.0%,23.8%
O=S(=O)(c1ccccc1Cl)N1CCCC(c2nc(-c3cccnc3)no2)C1 (centres undefined),4.3%,2.2%,-1.4%,6.6%,·,25.9µM*
N=c1nc2n(cc1F)C1OC(CO)C(O)C1O2 (centres undefined),?,0.0%,-1.5%,·,6.3%,0.13µM*
CCN(c1ccccc1)S(=O)(=O)c1cccc(C(=O)N2CCN(S(=O)(=O)c3ccccc3)CC2)c1,-0.7%,-0.3%,28.2µM*,8.2%,0.1%,?
